Values of other authors in publication PMC5708649, “A novel Porphyromonas gingivalis enzyme: An atypical dipeptidyl peptidase III with an ARM repeat domain” (PLoS ONE, 2017).

Target: T1, human DPP III (Homo sapiens, UniProt Q9NY33)
T1 sequence (Q9NY33 1-737): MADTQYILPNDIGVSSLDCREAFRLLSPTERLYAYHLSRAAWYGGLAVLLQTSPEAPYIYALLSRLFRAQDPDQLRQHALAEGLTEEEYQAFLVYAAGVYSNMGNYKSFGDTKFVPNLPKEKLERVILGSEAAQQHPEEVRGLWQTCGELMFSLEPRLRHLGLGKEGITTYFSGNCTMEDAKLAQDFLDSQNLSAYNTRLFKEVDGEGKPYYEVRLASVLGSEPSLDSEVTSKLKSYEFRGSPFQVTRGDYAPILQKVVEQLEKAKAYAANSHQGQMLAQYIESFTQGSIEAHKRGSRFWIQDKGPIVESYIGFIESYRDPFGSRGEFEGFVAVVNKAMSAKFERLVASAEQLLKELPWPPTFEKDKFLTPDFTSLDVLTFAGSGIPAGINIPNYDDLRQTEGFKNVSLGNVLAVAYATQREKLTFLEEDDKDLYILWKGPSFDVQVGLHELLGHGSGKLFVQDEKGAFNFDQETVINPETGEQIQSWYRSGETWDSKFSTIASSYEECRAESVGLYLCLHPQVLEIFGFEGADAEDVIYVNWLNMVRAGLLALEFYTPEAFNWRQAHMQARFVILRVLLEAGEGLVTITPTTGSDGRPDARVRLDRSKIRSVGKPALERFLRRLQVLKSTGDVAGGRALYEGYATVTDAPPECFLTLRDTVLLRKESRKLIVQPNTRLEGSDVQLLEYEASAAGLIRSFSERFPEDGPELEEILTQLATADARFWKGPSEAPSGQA
Details: difference entirely on account of Km; cited from earlier work

In the case of N=C(N)NCCC[C@H](NC(=O)[C@@H](N)CCCNC(=N)N)C(=O)Nc1ccc2ccccc2c1 [Arg-Arg-2NA, Arg-Arg-2-naphthylamide] (H-Arg-Arg-βNA), the “substrate preference of human DPP III (in words)” value is listed as “prefers Arg2-2NA over Arg2-AMC”.

Where a SMILES comes first, the peptide text is derived from it. The star is where a group is joined. βNA = c1ccc2cc(N*)ccc2c1
